# Apparent affinities of Ab-14 variants for a coronavirus HR2 peptide

The measurements come from Li et al. 2023 (doi:10.1038/s41467-023-39022-2) through the FLAb antibody collection.

Target peptide (SARS-CoV-2 spike, HR2 region): PDVDLGDISGINAS

Parent scFv Ab-14: VH joined to VL by a (GGGGS)3 linker. Changes lie in the heavy chain CDRs alone.
VH: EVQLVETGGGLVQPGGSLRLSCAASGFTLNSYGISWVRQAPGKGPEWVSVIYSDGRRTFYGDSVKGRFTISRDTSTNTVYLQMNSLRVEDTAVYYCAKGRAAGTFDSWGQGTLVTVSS
VL: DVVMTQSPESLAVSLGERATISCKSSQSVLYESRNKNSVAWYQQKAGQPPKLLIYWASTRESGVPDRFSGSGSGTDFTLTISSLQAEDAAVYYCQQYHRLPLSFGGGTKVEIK

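The parent was found by panning a naive human phage display library on the peptide. The variants were designed computationally from a first round of random CDR variants and then made and measured. Group labels follow the data file (Ctrl: baseline library sampled from a position-specific scoring matrix, with some repeated check sequences; Rand: our label for a block that the file lists under HC and that is probably the random mutants of the ten best first-round binders; En: ensemble of fine-tuned language models; GP: Gaussian process model; GPLM: also part of the Gaussian process libraries; HC: hill climbing; Gen: genetic algorithm; Gibbs: Gibbs sampling; a sequence that several methods proposed may carry one label only). AlphaSeq pools MATa yeast showing the antibodies with MATalpha yeast showing the peptide. Mating (16 h, 30 °C) was followed by selection of diploids and sequencing of their barcodes. A regression on co-assayed BCL2-family reference pairs converts the normalised counts of each replicate to an apparent Kd. Each pool was mated in six replicate cultures.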

Each variant is given by its three heavy chain CDRs, as the data file delimits them; those of the parent are GFTLNSYGIS, VIYSDGRRTFYGDSVK, GRAAGTFDS.
Values are apparent Kd, the geometric mean of the replicates that gave a signal; lower means stronger binding.
"not detected" marks a missing value. The strain was present, yet no cells mated with the target were sequenced in any replicate, which points to weak or no binding.
In the paper, a design with two or fewer of six values counts as a poor binder.
The parent sequence was in this pool as ten entries: three were never detected, three once, and four in most replicates, with averages from 2.2 nM to 240 nM.
The range of this assay differs from that of the first round, and the authors advise against merging the two.
Background: pairings of all heavy chain designs with three empty control strains gave a value in 1% of cases (median 120 nM, 5th percentile 7.0 nM). Values in that range, when seen in few replicates, are hard to tell from nonspecific mating.

CDR-H1,CDR-H2,CDR-H3,group,Kd,replicates with signal
GESLNEYGIS,VIYADGLRSKYADKFK,GQLAGYFDV,En_Gibbs,not detected,0/6
GFSLNSYGIS,VIYSDGRRTFYGDSVK,GKEAGTFDT,GPLM_Gibbs,420 pM,6/6
GETLNCYGIS,VIYSDGRRTFYGDSVK,RRAALTFDS,Ctrl,not detected,0/6
GFNIDEYGIS,VIYADGQRLSYDDNVK,GGITGTFDN,En_Gibbs,not detected,0/6
GFDLNSYGIS,VIYSDGRRTAYGDMVK,GRQAGTFDS,GP_Gen,720 pM,6/6
GFDLNEYGIS,VIYADGRRTAYTDSVK,GHVAGTFDL,En_HC,260 pM,6/6
GFDLNEYGIS,VIYADGVRTVYADSVK,GQNAGTFDI,En_Gen,480 pM,6/6
GFNLDEYGIS,VIYADGYRRAYAQSVK,GYNSSLGVT,En_Gibbs,not detected,0/6
GFDLNEYGIS,VIYADGKRTFYADSVK,GNVAGTFFS,En_HC,630 pM,6/6
GKDLLEYGIS,VIYADGIRVMYQNQVK,GNVAGFFTL,En_Gibbs,not detected,0/6
GFEIDEYGIS,VIYADGRSRAYADDVK,GNDIGGFDL,En_Gibbs,not detected,0/6
GFDLNEYGIS,VIYADGVRTAYADNVK,GNVAGTFDT,En_Gen,330 pM,6/6
GFNLDEYGIS,VIYADGVRTFYSNSVK,GYGGTFMEG,En_Gibbs,11 µM,1/6
GFTLNSYGIS,VIYSDGRRTFYSDSVK,GKDAGTFDS,GPLM_Gen,8.8 nM,6/6
GFDLNSYGIS,VIYSDGRRTFYGDQVK,GRAAGTFDS,Ctrl,2.1 nM,6/6
GFDLNSYGIS,VIYSDGRRTFYGDSVK,GRQAGIFDS,GP_HC,87 nM,1/6
GFSLNSYGIS,VIYSDGRRTFYGDQVK,GRQAGTFDS,GP_Gen,2.8 nM,6/6
GFTLNEYGIS,VIYSDGIRTFYGDSVK,GRTAGTFDT,GPLM_Gen,2.0 nM,6/6
GFDIEEYGIS,VIYADGVRMMYASNFK,GKIAGTGLL,En_Gibbs,6.4 nM,4/6
GFDLEEYGIS,VIYADGKRAQYTDAVK,GKFLDMMTY,En_Gibbs,4.8 nM,6/6
GFSLNEYGIS,VIYSDGRRTFYEDSVK,GRNAGTFDS,GP_Gibbs,170 pM,6/6
GFDLEDYGIS,VIYADGKRTAYADSVK,GQVAGTFDV,En_Gen,350 pM,6/6
GMDLNSYGIS,VIYSDGRRTFYSDQVK,GRTAGTFDS,GP_Gibbs,550 pM,6/6
GFTLDEYGIS,VIYADGMRTQYADQVK,GLLVATVMT,En_Gibbs,not detected,0/6
GFDLNEYGIS,VIYADGMRTAYSDDVK,GNVAGTFDQ,En_Gen,600 pM,6/6
GFTLESYGIS,VIYSDGRRTFYDDSVK,GQEAGTFDS,GP_HC,4.0 nM,6/6
GFDLNEYGIS,VIYADGRRTAYSDSVK,GEAGGTFDA,En_HC,1.0 nM,6/6
GFDLNEYGIS,VIYADGMRTAYTDKVK,GNQAGTFDV,En_Gen,1.0 nM,6/6
GFNLNSYGIS,VIYSDGRRTFYQDSVK,GRVAGTFDS,GP_Gen,7.9 nM,5/6
GFTLNSYGIS,VIYSDGRRLFYGDSVR,GRAAGTFDS,Ctrl,not detected,0/6
GFTLNEYGIG,VIYSDGRRTFYGDSVK,MRAAVTFDQ,Rand,not detected,0/6
GFDLNEYGIS,VIYADGMRTFYADSVK,GEAAGTFDQ,En_HC,2.8 nM,6/6
GFDLEEMGVS,VIYHDGIRKAYKQKVK,GQTAGSFDV,En_Gibbs,not detected,0/6
GFDLNEYGIS,VIYADGKRTAYSDSVK,GGNAGTFDQ,En_Gen,630 pM,6/6
KFDLEAYGIS,VIYADGVRTNYVDKVK,GQTGGMFDM,En_Gibbs,not detected,0/6
GFSLDEYGIS,VIYADGIRQHYSDQVK,GVVFGNVMF,En_Gibbs,760 nM,1/6
GFTLESYGIS,VIYSDGRRTFYGDSVK,GRAAGTFVS,Ctrl,not detected,0/6
GHTLQSYGIS,VIYSDGRRTFYGDSVK,GRWMGTFDS,Ctrl,not detected,0/6
GFTLNSYGIS,VIYSDGRRTFYDDSYK,GQIAGTFDS,Rand,80 nM,2/6
GFDLNEYGIS,VIYADGKRTFYSDSVK,GQVAGTFDV,En_HC,550 pM,6/6
GFTLQDYGIS,VIYSDGQRTFYGDKVK,GRAADTFDY,Ctrl,not detected,0/6
GFTLNDYGIS,VIYSDGRRTFYSDSVK,GRAAGTFIS,GPLM_HC,not detected,0/6
GFDLNSYGIS,VIYSDGRRTFYIDMVK,GNAAGTFDS,GP_Gen,3.0 nM,2/6
GFDLNSYGIS,VIYSDGNRTFYGDSVK,GRAAGWFNS,Rand,not detected,0/6
GFDLDEYGIS,VIYADGMRTFYSDSVK,GNVAGTFDV,En_Gen,410 pM,6/6
GFDLNEYGIS,VIYADGKRTAYADSVK,GQNAGTFDI,En_Gen,980 pM,6/6

The 7 strongest on average among those seen in every replicate, once more:

| CDR-H1 | CDR-H2 | CDR-H3 | group | Kd | replicates with signal |
|---|---|---|---|---|---|
| GFSLNEYGIS | VIYSDGRRTFYEDSVK | GRNAGTFDS | GP_Gibbs | 170 pM | 6/6 |
| GFDLNEYGIS | VIYADGRRTAYTDSVK | GHVAGTFDL | En_HC | 260 pM | 6/6 |
| GFDLNEYGIS | VIYADGVRTAYADNVK | GNVAGTFDT | En_Gen | 330 pM | 6/6 |
| GFDLEDYGIS | VIYADGKRTAYADSVK | GQVAGTFDV | En_Gen | 350 pM | 6/6 |
| GFDLDEYGIS | VIYADGMRTFYSDSVK | GNVAGTFDV | En_Gen | 410 pM | 6/6 |
| GFSLNSYGIS | VIYSDGRRTFYGDSVK | GKEAGTFDT | GPLM_Gibbs | 420 pM | 6/6 |
| GFDLNEYGIS | VIYADGVRTVYADSVK | GQNAGTFDI | En_Gen | 480 pM | 6/6 |